{
  "sequences": {"note": "By UniProt entry, the sequences of proteins in these tests, tags left out. Where a name states a change or a piece, a line headed by the entry shows the natural chain unless it says otherwise.", "UniProt P42338": "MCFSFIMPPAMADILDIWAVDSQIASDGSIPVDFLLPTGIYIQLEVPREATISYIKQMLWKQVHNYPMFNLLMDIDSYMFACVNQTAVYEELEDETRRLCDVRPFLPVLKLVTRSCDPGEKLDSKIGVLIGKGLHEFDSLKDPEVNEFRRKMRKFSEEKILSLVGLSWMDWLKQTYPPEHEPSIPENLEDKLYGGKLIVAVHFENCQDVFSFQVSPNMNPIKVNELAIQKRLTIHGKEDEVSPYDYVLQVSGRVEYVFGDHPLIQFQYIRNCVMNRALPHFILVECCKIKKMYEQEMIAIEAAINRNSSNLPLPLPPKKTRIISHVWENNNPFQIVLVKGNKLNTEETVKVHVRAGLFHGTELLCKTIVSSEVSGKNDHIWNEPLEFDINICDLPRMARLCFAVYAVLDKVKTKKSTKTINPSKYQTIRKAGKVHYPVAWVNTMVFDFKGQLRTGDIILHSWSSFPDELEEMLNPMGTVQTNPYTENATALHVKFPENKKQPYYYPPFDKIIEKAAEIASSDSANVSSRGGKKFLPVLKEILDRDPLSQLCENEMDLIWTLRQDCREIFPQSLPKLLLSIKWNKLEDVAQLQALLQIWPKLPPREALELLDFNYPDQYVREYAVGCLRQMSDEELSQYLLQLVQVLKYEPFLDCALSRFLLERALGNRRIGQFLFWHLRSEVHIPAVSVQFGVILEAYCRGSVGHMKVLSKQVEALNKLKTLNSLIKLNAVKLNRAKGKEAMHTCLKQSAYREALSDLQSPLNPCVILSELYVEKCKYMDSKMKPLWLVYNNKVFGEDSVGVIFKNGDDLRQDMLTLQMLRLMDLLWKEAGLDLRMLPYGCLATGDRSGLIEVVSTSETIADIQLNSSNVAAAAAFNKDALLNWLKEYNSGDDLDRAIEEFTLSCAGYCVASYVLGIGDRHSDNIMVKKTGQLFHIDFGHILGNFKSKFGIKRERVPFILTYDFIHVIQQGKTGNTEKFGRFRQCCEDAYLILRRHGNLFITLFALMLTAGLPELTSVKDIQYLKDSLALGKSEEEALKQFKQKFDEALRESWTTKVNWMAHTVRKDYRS"},
  "source": "the Kinase Knowledgebase extract (Sharma et al. 2016)",
  "molecular_target": "PIK3CB (Human) (UniProt P42338)",
  "data": [
    {"smiles": "CC(C)n1nc(-c2cc(F)c3cn[nH]c3c2)c2c(N)ncnc21", "values": [
      {"measurement": "IC50", "result": "< 1000", "unit": "nM"}
    ]}
  ]
}
